# Literature values, collected in article PMC7497626, “Ruthenium-Mediated ^18F-Fluorination and Preclinical Evaluation of a New CB1 Receptor Imaging Agent [^18F]FPATPP” (ACS Chemical Neuroscience, 2020).
# Molecular target: CB1Rs
# Parameters: method as in PMID 8070571
# Conditions: cited from earlier work
smiles,measurement,setting,value
Cc1c(C(=O)NN2CCCCC2)nn(-c2ccc(Cl)cc2Cl)c1-c1ccc(Cl)cc1 [Rimonabant],Ki,CB1Rs in the CNS,1.98 nM
same,Selectivity for CB1Rs over CB2Rs,,more than 1000 fold
